Here are results for one compound from PMC11284600, “Many human pharmaceuticals are weak inhibitors of the cytochrome P450 system in rainbow trout (Oncorhynchus mykiss) liver S9 fractions” (Frontiers in Toxicology, 2024).

For this data set, the system named is CYP1A-like EROD activity. Kind of data set: EROD inhibition in RT-S9 (IC50 shift assay). The following applies: both, Christophersen, Bornhoeved, rainbow trout (Oncorhynchus mykiss), s9, pH 7.8, EROD inhibition in RT-S9, IC50 shift (A/C), IC50 Protocol A / IC50 Protocol C.

Counter-ions that a name gives are not always drawn.

Take `COc1cc2nc(N3CCN(C(=O)c4ccco4)CC3)nc(N)c2cc1OC` [Prazosin, prazosin hydrochloride]: the IC50 shift at 10 min was 0.6.
